Test results published in patent publication US20030133931A1 (priority 2001, published 2003).
pKi: −log10 of the molar value.

The chains behind the UniProt entries cited, without tags or fusion partners. Where a name states a change or a piece, a line headed by the entry shows the natural chain unless it says otherwise. Residues count along the entry.
UniProt Q91ZY3, 1-389: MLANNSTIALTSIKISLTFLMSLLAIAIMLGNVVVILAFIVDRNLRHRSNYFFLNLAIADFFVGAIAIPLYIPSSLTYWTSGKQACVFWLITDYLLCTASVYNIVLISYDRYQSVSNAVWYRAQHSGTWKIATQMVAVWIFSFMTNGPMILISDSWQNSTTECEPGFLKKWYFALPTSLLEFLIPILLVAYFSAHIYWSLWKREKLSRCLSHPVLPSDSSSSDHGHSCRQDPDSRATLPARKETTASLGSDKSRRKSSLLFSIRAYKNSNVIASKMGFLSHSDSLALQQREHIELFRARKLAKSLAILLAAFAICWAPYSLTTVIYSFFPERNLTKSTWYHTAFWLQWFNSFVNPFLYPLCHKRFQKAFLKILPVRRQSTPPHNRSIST
UniProt Q91ZY1: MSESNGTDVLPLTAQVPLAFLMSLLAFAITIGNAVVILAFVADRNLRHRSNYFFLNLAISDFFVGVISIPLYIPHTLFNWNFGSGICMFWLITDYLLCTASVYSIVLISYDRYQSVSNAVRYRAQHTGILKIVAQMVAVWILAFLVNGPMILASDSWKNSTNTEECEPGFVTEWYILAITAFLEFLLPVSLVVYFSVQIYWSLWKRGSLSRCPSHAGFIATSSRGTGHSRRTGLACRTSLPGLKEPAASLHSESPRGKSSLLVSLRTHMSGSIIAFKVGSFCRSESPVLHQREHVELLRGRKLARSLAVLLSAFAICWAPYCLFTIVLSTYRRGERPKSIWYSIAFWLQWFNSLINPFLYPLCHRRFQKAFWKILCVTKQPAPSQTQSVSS

Assays:
[1] = biological target: guinea pig histamine H4 receptor (Cavia porcellus, UniProt Q91ZY3); assay: biochemical
[2] = biological target: rat histamine H4 receptor (Rattus norvegicus, UniProt Q91ZY1); assay: biochemical

CNC(=S)NCCCCc1cnc[nH]1 [Burimamide]
pKi [1]: 6.08
pKi [2]: 6.02
